# Measured values reported in patent US12589092B2, “Polycyclic compound acting as kinase inhibitor” (HANGZHOU INNOGATE PHARMA CO., LTD., priority 2020, dated 2026).
# The chains behind the UniProt entries cited, without tags or fusion partners.
# UniProt P11802, whole entry: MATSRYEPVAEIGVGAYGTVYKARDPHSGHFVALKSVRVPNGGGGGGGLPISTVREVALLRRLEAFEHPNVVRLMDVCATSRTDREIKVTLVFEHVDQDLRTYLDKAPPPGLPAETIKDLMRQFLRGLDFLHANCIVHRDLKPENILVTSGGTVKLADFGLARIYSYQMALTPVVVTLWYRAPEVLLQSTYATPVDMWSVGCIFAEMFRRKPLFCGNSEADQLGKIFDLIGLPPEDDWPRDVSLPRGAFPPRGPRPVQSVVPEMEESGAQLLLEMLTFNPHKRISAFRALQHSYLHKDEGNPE
# UniProt Q00534, whole entry: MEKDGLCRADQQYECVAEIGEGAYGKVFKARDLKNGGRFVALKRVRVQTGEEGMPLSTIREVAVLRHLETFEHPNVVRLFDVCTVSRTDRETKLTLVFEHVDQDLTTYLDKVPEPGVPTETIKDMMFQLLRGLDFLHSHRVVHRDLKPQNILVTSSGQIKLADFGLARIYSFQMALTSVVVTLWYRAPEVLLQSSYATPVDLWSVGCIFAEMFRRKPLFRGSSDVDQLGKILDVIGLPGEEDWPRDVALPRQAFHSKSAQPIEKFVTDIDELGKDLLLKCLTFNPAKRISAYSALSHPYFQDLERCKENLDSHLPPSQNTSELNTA
# UniProt P30281, whole entry partner: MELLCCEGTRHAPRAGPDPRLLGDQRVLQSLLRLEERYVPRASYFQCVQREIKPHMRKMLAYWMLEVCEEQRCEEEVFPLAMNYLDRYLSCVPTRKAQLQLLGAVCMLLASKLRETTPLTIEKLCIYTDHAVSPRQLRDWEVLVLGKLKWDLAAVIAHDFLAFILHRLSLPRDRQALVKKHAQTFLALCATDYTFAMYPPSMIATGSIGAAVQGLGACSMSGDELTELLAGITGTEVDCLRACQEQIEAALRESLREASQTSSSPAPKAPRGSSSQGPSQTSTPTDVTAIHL
# Assays:
# Assay type in all cases: biochemical
# CDK2/CycA2 = CDK2/CycA2 (Homo sapiens, UniProt P24941); test: CDK2 kinase activity inhibition assay (caliper mobility shift); settings: read-out: CDK2 kinase inhibitory activity (IC50); CDK2/CycA2 12 nM, ATP 39 μM
# CDK4/CycD3 = CDK4/CycD3 (Homo sapiens, UniProt P11802); test: CDK4 kinase activity inhibition assay (caliper mobility shift); settings: read-out: CDK4 kinase inhibitory activity (IC50); CDK4/CycD3 10 nM, ATP 221 μM
# CDK6/cycD3 = CDK6/cycD3 (Homo sapiens, UniProt Q00534); test: CDK6 kinase activity inhibition assay (caliper mobility shift); settings: read-out: CDK6 kinase inhibitory activity (IC50); CDK6/cycD3 15 nM, ATP 800 μM
structure (smiles),measurement,setting,value
CC(=O)c1c(C)c2cnc(Nc3ccc4c(c3)OC[C@@H]3CN(C5CNC5)CCN43)nc2n(C2CCCC2)c1=O,IC50,CDK2/CycA2,< 100 nM
same,IC50,CDK4/CycD3,< 10 nM
same,IC50,CDK6/cycD3,< 10 nM
